The values below are quoted from earlier work in patent US11622965B2, “Methods for treating lymphoid malignancies” (ZHEJIANG DTRM BIOPHARMA CO. LTD., priority 2017, dated 2023).

Chains of the proteins cited; added tags and fusions are not shown. Lines headed by an entry give the natural chain unless they say otherwise; changes in a name come on top.
UniProt Q06187: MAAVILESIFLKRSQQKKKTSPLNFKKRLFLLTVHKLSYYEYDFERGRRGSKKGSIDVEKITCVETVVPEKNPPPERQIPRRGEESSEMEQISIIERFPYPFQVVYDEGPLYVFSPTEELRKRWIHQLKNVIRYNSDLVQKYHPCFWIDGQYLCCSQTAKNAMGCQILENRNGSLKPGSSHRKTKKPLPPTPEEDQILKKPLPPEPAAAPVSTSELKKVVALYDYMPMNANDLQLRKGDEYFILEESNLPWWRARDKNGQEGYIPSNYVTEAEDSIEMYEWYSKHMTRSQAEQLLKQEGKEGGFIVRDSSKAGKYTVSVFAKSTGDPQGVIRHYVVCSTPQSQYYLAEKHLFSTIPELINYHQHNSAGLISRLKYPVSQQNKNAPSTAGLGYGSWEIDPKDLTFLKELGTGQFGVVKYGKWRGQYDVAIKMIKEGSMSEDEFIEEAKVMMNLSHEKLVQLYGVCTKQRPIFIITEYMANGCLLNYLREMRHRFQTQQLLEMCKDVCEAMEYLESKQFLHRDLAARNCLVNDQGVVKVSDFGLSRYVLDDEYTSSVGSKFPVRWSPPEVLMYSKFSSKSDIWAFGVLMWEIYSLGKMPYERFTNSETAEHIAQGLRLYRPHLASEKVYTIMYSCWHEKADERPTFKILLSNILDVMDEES

pIC50: −log10 of the molar value.

This data set addresses BTK (Homo sapiens, UniProt Q06187). Particulars: cited from earlier work.

For `C=CC(=O)N1CC[C@@H](n2nc(-c3ccc(Oc4c(F)c(F)cc(F)c4F)cc3F)c3c(N)ncnc32)C1` [Compound A, 1-((R)-3-(4-amino-3-(2-fluoro-4-(2,3,5,6-tetrafluorophenoxy)phenyl)-1H-pyrazolo[3,4-d]pyrimidin-1-yl)pyrrolidin-1-yl)prop-2-en-1-one], the pIC50 is 9.15.

By pIC50 is commonly meant the IC50 on a negative log10 scale, so that one unit is a factor of ten.
